The values that follow come from patent US12121523B2, “Method of treatment of attention deficit/hyperactivity disorder (ADHD)” (Supernus Pharmaceuticals, Inc., priority 2008, dated 2024).

By UniProt entry, the sequences of proteins in these tests, tags left out.
UniProt P34969, whole entry: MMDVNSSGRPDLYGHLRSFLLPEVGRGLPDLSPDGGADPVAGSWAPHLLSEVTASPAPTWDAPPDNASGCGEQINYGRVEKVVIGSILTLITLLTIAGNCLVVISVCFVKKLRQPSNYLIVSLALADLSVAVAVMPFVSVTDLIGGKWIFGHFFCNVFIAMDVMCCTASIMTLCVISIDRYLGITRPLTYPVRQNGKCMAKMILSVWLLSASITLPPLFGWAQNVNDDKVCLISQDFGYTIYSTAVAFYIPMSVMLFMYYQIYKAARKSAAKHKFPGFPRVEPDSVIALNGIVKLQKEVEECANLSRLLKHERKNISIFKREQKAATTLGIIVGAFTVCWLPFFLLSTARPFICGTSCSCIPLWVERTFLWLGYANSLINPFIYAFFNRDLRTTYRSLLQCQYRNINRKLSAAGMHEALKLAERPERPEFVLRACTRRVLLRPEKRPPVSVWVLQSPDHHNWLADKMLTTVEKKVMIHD

Assay [1] deals with T1, 5-HT7 (h) (Homo sapiens, UniProt P34969). To be noted: 45 min/37° C.; FIG. 2. How it is done: The apparent dissociation constants for antagonists Kb were calculated using the modified Cheng Prusoff equation.
Assay [2] deals with T1, 5-HT7 (h).

Usually IC50 stands for the concentration that gives 50% inhibition. Viloxazine: the “agonist effect (cAMP response)” value on 5-HT7 (h) [1] is “no measurable response”. Also, at 5-HT7 (h) [2], the “antagonist activity (in words)” value is recorded as “specific antagonist activity”. In addition, the IC50 at 5-HT7 (h) [2] (read-out: antagonist IC50, serotonin-stimulated cAMP, 45 min/37° C., FIG. 3) is greater than 30 µM.
